Reference: patent US12071488B2, “Method of sensitizing cancer cells to anti-cancer treatment” (TWO TO BIOTECH LTD., priority 2017, dated 2024)

Tests used:
MDA-MB-468 cells = test: Analysis of apoptosis in MDA-MB-468 cells with APC1 and Herceptin; assay type: cell-based, human; conditions: Herceptin 12 μg/ml, APC1 250 μg/ml (FIG. 9)
Method: A bar graph showing the level of apoptosis in MDA-MB-468 cells without any treatment (control), upon administration of Herceptin (12 μg/ml), APC1 (250 μg/ml) or upon administration of APC and Herceptin at the above amounts. The level of apoptosis is also shown for N87 cell in the absence and in the presence of Herceptin (at 100 μg/ml).
Cells were examined for apoptosis or HER2 expression using FACS analysis. The HER2 antibody used was abcam ab16901. The marker Annexin (Enco) was used for assessment of apoptosis.

MDA-MB-231 cells = test: FACS analysis of apoptosis (Annexin) in MDA-MB-231 cells; assay type: cell-based, human; conditions: for level of apoptosis: MDA-MB-231 not pre-treated with APC1, 72 hours (FIG. 5A)
Method: Cells were grown until 70-80% density was reached. Then the growth medium was discarded and the cells were treated with trypsin and medium as described above. The cells that were suspended in medium and Trypsin were then transferred into 50 ml conical tubes and centrifuged at 300 g for 10 min in 4° C. Next, the supernatant was discarded and 2 ml fresh medium was added to the cell pellet. The cells were fluidized and additional 13 ml medium was added to the cells such that the cells are suspended in a total of 15 ml medium. The cells were counted and around 40,000 cells were placed in each one of nine 25 cm^2 flasks in 10 ml medium (in each flask). Cells were placed in the incubator overnight. The next day, the supernatant was discarded and replaced by 10 ml DMEM or RPMI containing 2.5% FBS (instead of 10% FBS). The cell flasks were further treated for example as follows: • Flasks 1+9: no treatment • Flask 2: 250 μg/ml APC1 • Flask 3: no treatment • Flask 4: no treatment • Flask 5: no treatment • Flask 6: 250 μg/ml APC1 • Flask 7: 250 μg/ml APC1 • Flask 8: 250 μg/ml APC1
Cells treated as indicated above were incubated in an incubator for 48 hours. Then, a second dose of APC1 (at the same final concentration) was added to cell flasks 2, 6, 7 and 8 and the cells were further incubated for 24 hours. If the cells reached over 85% confluence, 50% of the cells were scraped from the flask. The media was discarded, and 10 ml DMEM or RPMI containing 10% FBS were added to each flask. The cell flasks were further treated for example as follows (with a third dose of APC and/or Kadcyla): • Flasks 1+9: no treatment • Flask 2: 250 μg/ml APC1 • Flask 3: 5 μg/ml Kadcyla • Flask 4: 10 μg/ml Kadcyla • Flask 5: 25 μg/ml Kadcyla • Flask 6: 250 μg/ml APC+5 μg/ml Kadcyla • Flask 7: 250 μg/ml APC1+10 μg/ml Kadcyla • Flask 8: 250 μg/ml APC1+25 μg/ml Kadcyla (optionally)
Cells were incubated for further 72-96 hours. Finally the cells were collected and subjected to analysis (FACS analysis of apoptosis markers, or assessment of HER2 expression) as described below. […]

Substance | level of apoptosis (MDA-MB-468 cells) | level of cellular apoptosis (MDA-MB-231 cells; MDA-MB-231, prolonged incubation, Kadcyla 96 hours (FIG. 6)) | level of apoptosis (MDA-MB-231 cells; Kadcyla 5 μg/ml) | level of apoptosis (MDA-MB-231 cells; Kadcyla 10 μg/ml)
Herceptin: humanized monoclonal antibody that interferes with the HER2/neu receptor [reference compound] | 10% | – | – | –
Kadcyla: antibody-drug conjugate of the monoclonal antibody trastuzumab linked to the cytotoxic agent emtansine (DM1) | – | low level of apoptosis | practically none | 10%
